From PubChem BioAssay AID445 (National Center for Advancing Translational Sciences (NCATS), 2006)
The list shows a part of the results. Results filed as inconclusive are left out. The source made the active and inactive calls. Calls follow the shape of the dose curve; as a rule, active = well fitted curve in the direction sought with a large enough effect in the signal ratio (not every such curve was filed as active); inconclusive = small, poorly fitted or top-dose-only effect, or a change in a side signal; inactive = flat fitted curve, though single readings scatter; the % refers to the signal ratio.

Test: IkB Signaling;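 also: 0% = basal untreated cells and 100% = reference inhibitor full response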
Conditions: ABC-DLBCL IkBa-CBG/CBR dual luciferase ratio (green luciferase fused to IkBa over red control in OCI-Ly3 lymphoma cells), 4 h, scaled: untreated 0%, proteasome inhibitor 100%; at 57.1 µM (top of the series) unless noted
From the text: NIH Molecular Libraries Screening Centers Network [MLSCN]
NIH Chemical Genomics Center [NCGC]
Nuclear factor kappa-B (NF-kappa-B) plays an important role in normal B cell development and survival. Diffuse large B cell lymphoma (DLBCL) is the most commonly observed type of non-Hodgkin's lymphoma. Gene expression analysis has identified an activated B cell-like subtype of DLBCL (ABC-DLBCL) which expresses known NF-kappa-B target genes. […] However, targets upstream of IKK have been largely unexplored and so nodes upstream of IKK in the NF-kappa-B pathway remain untested due to the lack of chemical probes.
A cell-sensor assay for I-kappa-B-alpha stabilization was developed with NIH investigator Dr. R. Eric Davis in Dr. Louis M. Staudt's laboratory. The assay uses green (CBG68) and red (CBR) emitting beetle luciferases [Chroma-Glo(TM) developed by Promega Corp.] where the green luciferase is fused to I-kappa-B-alpha and the red luciferase is present in its native state. Both luciferase genes are stably present in the OCI-Ly3 human ABC DLBCL cell line, but their expression is under the control of tetracycline-inducible promoters. Following the addition of doxycycline to induce expression of the luciferases, the green luminescence in control cultures rises only slowly because the CBG fusion partner I-kappa-B-alpha is targeted by IKK activity for rapid degradation. In contrast, green luminescence rises rapidly in the presence of proteasome inhibitors or IKK inhibitors. The rise in red luminescence of CBR is not affected by proteasome or IKK inhibitors, and serves as normalization for cell number and nonspecific effects. Compounds were screened as a concentration-titration series that ranged from 57 uM to 0.7 nM.
NCGC Assay Protocol Summary:
Cells were seeded in 1536-well plates at 5000 cells/3ul in IMDM medium containing 0.5% FBS, w/o phenol red, L-glutamine, 25 mM HEPES, 3 mg/ml sodium bicarbonate. After centrifugation for 1 min. at 1000 rpm, 23 nl of compounds or DMSO were delivered to each well using a pin tool. Then 1ul 80ng/ml doxycycline was dispensed into white solid 1536-well plates and the plates were incubated at 37C/5% C02 in a cell incubator for 4 hrs. Then 4 ul Chroma-Glo luminescent substrate mix (Promega) was added to each well. The plate was incubated at R.T. for 10-15 min. The plates were measured on a ViewLux plate reader for green luminescence (540/20 nm filter) and red luminescence (618/8 nm filter). The green and red luminescent signals were corrected for red and green luminescence filter overlap using previously determined filter calibration constants (determined using the procedure outlined in the Promega Technical Manual). The %Activity was determined from the ratio of corrected green/red luminescent values. Green luminescent and ratio %Activity was determined by normalizing to the difference in signal between basal cells (0% Activity) and cells incubated with 10 uM of the proteasome inhibitor MG-132 (100% Activity). Red luminescent %Activity was normalized to the difference between red luminesence in basal cells (0%Activity) and zero luminescence (-100% Activity).
Concentration-response curves were fitted to the signals arising from the green luminescence (I-kappa-B-alpha-luciferase fusion; IkB-luc) and the red luminescence (unfused luciferase; luc) as well as the calculated ratio. The concentration-effect curves were then classified based on curve quality (r2), response magnitude and degree of measured activity. Compounds were then categorized based on their concentration-response curves for all three datasets (Ikb-luc, luc and ratio).
Keywords: IKK, I-kappa-B, IkB, IkBa, cytotoxicity, luminescence, MLSMR, MLSCN, NIH Roadmap, qHTS, NCGC

Compound	IkBa stabilization activation
Cc1ccc(NP(C)(=O)Oc2ccccc2)c(C)c1 (centres undefined)	inactive: -2%
COc1ccccc1OP(C)(=O)Nc1ccc(C)cc1 (centres undefined)	inactive: 1.12%
O=[N+]([O-])[O-].[NH4+]	inactive: -0.555%
CCOP(C)(=S)SCC(=O)NC(C)C(=O)O (centres undefined)	inactive: -0.576%
CP(=O)(NC(=O)Nc1ccccc1)Oc1ccccc1 (centres undefined)	inactive: 3.61%
CP(=S)(Nn1cnnc1)Oc1ccccc1 (centres undefined)	inactive: -1.29%
N1=C(c2nnc(-c3nn[nH]n3)nn2)NNN1	inactive: -0.807% [at 11.4 µM]
Cc1nc2ccc3ccccc3c2s1.O=[N+]([O-])c1cc([N+](=O)[O-])c(O)c([N+](=O)[O-])c1	inactive: -0.887%
Cc1ccc(C)c(NP(C)(=O)Oc2ccccc2)c1 (centres undefined)	inactive: 1.16%
Cc1ccc([N+](=O)[O-])cc1[N+](=O)[O-]	inactive: 0.733%
O=[N+]([O-])c1cccc([N+](=O)[O-])c1	inactive: 0.0875%
Cc1cccc([N+](=O)[O-])c1[N+](=O)[O-]	inactive: 7.12%
CCC(C)(OO)OOC(C)(CC)OO (centres undefined)	inactive: -1.55%
CP(=O)(Nc1ccccc1F)Oc1ccccc1 (centres undefined)	inactive: 0.573%
CP(=O)(Nc1ccc2c(c1)OCCO2)Oc1ccccc1 (centres undefined)	inactive: 2.16%
NNC(NN)NN.n1nc(-c2nn[nH]n2)n[nH]1	inactive: 1.95% [at 11.4 µM]
[NH4+].[O-][Cl+3]([O-])([O-])[O-]	inactive: 1.19%
Cc1ccccc1NP(C)(=O)Nc1ccccc1C	inactive: -1.62%
CCOP(=O)(CC)OCC	inactive: -0.985%
CCOP(C)(=S)SCC(=O)NC(C)(CC)C(=O)O (centres undefined)	inactive: -0.883%
Cc1ccc([N+](=O)[O-])c([N+](=O)[O-])c1	inactive: 7.38%
Cc1c([N+](=O)[O-])cccc1[N+](=O)[O-]	inactive: 2.38%
CN(C)CCOC(=O)C(O)(c1ccccc1)C1CCCCC1 (centres undefined)	inactive: 0.313%
C/C1=C2N=C(/C=C3N=C(/C(C)=C4\[N-][C@@](C)([C@H]5N=C1[C@@](C)(CCC(=O)NC[C@H](C)OP(=O)([O-])O[C@@H]1[C@H](O)[C@H](n6cnc7cc(C)c(C)cc76)O[C@@H]1CO)[C@@H]5CC(N)=O)[C@](C)(CC(N)=O)[C@H]4CCC(N)=O)[C@@](C)(CC(N)=O)[C@@H]\3CCC(N)=O)C(C)(C)[C@@H]/2CCC(N)=O.[C-]#N.[Co+3]	inactive: 0.509% [at 25.6 µM]
N#[O+].[C-]#N.[C-]#N.[C-]#N.[C-]#N.[C-]#N.[Fe+2].[Na+].[Na+]	inactive: 4.89%
CP(=O)(Oc1ccccc1)N1CCOC1=O (centres undefined)	inactive: -1.09%
COc1ccccc1OP(C)(=O)Nc1c(C)n(C)n(-c2ccccc2)c1=O (centres undefined)	inactive: 1.49%
CP(=O)(Nc1ccccn1)Oc1ccccc1 (centres undefined)	inactive: -1.1%
COc1ccccc1OP(C)(=O)Nc1ccc(C)c(C)c1 (centres undefined)	inactive: 0.248%
